Reference: paper PMC6805867 (2019)

Experiments:
Details in all cases: broth microdilution, 2 × 10^6 CFU/mL in 1% peptone, 37 °C, 18–22 h, 100% inhibition of growth, performed three times
[1] = tested on: Bacillus subtilis (KCTC 3068)
[2] = tested on: Pseudomonas aeruginosa (KCTC 1637)
[3] = tested on: Escherichia coli (KCTC 1682)
[4] = tested on: Staphylococcus aureus (KCTC 1621)

Which “MIC Bacillus subtilis (KCTC 3068)” value [1] does the source give for `CC[C@H](C)[C@H](NC(=O)CN)C(=O)NCC(=O)N[C@@H](C)C(=O)N[C@H](C(=O)N[C@@H](CC(C)C)C(=O)N[C@@H](CCCCN)C(=O)N[C@H](C(=O)N[C@@H](CC(C)C)C(=O)N[C@H](C(=O)N[C@H](C(=O)NCC(=O)N[C@@H](CC(C)C)C(=O)N1CCC[C@H]1C(=O)N[C@@H](C)C(=O)N[C@@H](CC(C)C)C(=O)N[C@H](C(=O)N[C@@H](CO)C(=O)N[C@@H](Cc1c[nH]c2ccccc12)C(=O)N[C@H](C(=O)N[C@@H](CCCCN)C(=O)N[C@@H](CCCNC(=N)N)C(=O)N[C@@H](CCCCN)C(=O)N[C@@H](CCCNC(=N)N)C(=O)N[C@@H](CCC(N)=O)C(=O)N[C@@H](CCC(N)=O)C(N)=O)[C@@H](C)CC)[C@@H](C)CC)[C@@H](C)O)[C@@H](C)O)C(C)C)C(C)C` [melittin, reference compound] here?
Its value is 8 µg/mL (≈ 2.81 µM).

And the “MIC Pseudomonas aeruginosa (KCTC 1637)” value [2]?
Its value is 16 µg/mL (≈ 5.62 µM).

And the “MIC Escherichia coli (KCTC 1682)” value [3]?
The value was 4 µg/mL (≈ 1.41 µM).

What about the “MIC Staphylococcus aureus (KCTC 1621)” value [4] of the same compound?
Its value is 4 µg/mL (≈ 1.41 µM).

Converted amounts (≈) assume the structure as drawn.
